Experimental data published in ChEMBL document CHEMBL4680299, “Lead optimization of the VU0486321 series of mGlu PAMs. Part 4: SAR reveals positive cooperativity across multiple mGlu receptor subtypes leading to subtype unselective PAMs” (Bioorg Med Chem Lett, 2021).
Activity calls are given as the source filed them. The rule behind the calls is not given here.

Amino acid sequences for entries named in this document (tags omitted). A change or cut given only in a name is not applied to a line headed by its entry.
UniProt Q14832: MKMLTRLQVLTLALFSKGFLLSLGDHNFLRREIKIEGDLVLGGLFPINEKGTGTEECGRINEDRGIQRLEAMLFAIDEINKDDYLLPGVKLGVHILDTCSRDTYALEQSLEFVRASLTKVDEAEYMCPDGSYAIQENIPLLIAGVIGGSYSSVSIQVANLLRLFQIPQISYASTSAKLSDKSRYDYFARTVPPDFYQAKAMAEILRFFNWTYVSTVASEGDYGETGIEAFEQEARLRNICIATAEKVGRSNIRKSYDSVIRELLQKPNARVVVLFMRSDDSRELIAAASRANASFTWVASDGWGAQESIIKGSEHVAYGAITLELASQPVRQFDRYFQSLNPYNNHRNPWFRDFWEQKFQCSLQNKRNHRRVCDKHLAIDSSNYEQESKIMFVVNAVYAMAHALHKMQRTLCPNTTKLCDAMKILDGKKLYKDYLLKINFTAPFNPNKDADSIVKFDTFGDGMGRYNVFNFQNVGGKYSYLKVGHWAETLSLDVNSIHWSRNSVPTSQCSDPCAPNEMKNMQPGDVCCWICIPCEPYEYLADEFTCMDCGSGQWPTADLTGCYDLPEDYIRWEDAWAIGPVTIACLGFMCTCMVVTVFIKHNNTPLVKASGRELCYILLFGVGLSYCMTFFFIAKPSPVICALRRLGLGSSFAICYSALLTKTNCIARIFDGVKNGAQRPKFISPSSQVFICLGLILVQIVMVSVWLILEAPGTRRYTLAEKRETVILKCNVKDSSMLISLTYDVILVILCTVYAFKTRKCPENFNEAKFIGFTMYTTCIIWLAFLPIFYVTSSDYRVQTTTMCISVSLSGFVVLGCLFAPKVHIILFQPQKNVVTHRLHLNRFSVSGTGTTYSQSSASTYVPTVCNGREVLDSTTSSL
UniProt Q14416: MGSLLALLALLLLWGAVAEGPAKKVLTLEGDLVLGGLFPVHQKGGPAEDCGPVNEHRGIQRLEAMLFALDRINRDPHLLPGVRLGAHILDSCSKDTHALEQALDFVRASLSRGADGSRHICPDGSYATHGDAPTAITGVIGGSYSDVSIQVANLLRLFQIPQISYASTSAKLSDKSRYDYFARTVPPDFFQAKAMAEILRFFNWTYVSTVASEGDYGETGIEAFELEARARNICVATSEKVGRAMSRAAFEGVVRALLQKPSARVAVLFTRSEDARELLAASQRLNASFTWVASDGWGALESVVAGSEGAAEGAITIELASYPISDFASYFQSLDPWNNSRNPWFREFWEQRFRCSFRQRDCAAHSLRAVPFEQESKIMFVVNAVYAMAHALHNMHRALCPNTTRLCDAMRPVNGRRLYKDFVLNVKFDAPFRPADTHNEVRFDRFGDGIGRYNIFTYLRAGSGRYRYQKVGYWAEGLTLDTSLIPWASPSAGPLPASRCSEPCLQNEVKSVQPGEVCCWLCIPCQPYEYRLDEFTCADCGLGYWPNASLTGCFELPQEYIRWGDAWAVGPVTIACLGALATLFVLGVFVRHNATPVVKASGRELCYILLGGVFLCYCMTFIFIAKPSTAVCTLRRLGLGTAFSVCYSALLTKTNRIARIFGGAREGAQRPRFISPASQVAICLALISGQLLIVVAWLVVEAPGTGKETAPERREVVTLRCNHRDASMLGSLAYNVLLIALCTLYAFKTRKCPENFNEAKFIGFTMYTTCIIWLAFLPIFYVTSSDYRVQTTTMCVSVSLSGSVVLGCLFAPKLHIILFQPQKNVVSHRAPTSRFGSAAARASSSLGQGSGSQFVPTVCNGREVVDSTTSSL

Experiments:
[1] = biological target: Metabotropic glutamate receptor 3 (Homo sapiens, UniProt Q14832); assay: Positive allosteric modulation of mGluR3 (unknown origin) at 10 uM in presence of glutamate by calcium mobilization assay; assay type: functional
[2] = biological target: Metabotropic glutamate receptor 2 (Homo sapiens, UniProt Q14416); assay: Positive allosteric modulation of mGluR2 (unknown origin) at 10 uM in presence of glutamate by calcium mobilization assay; assay type: functional

Cc1cc(NC(=O)c2occc2C)c(F)cc1N1C(=O)c2ccccc2C1=O
Activity [1]: inactive
Activity [2]: inactive
